The values below come from US7132417B2 (dated 2006).

Chains of the proteins cited; added tags and fusions are not shown.
UniProt P03372, whole entry: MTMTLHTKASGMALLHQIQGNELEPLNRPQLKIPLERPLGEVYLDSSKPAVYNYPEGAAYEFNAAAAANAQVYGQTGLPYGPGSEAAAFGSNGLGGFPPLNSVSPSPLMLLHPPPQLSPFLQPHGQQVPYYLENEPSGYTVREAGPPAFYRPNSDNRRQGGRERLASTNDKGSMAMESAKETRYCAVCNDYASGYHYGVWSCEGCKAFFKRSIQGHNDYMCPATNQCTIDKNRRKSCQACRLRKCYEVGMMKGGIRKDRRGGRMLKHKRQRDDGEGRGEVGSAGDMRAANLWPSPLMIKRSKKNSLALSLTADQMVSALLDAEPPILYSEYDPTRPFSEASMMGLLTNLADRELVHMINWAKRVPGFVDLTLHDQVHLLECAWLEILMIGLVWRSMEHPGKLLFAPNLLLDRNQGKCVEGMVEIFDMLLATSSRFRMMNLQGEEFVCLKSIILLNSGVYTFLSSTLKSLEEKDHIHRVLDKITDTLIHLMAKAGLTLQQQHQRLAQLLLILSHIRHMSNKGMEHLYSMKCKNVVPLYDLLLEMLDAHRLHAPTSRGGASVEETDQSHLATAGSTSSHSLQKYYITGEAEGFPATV

The assay concerns the target estrogen receptor (Homo sapiens, UniProt P03372). The assay is described as follows: In vitro estrogen receptor binding assay ([3H]-17β-estradiol competition).

Usually IC50 stands for the midpoint of a concentration-inhibition curve. Lower therefore signals inhibition by little substance. The compound `Cc1c(-c2cccc(O)c2)n(Cc2ccc(OCCN3CCCCCC3)cc2)c2ccc(O)cc12` [compound 128, 1-[4-(2-Azepan-1-yl-ethoxy)-benzyl]-2-(3-hydroxy-phenyl)-3-methyl-1H-indole-5-ol] gave an IC50 of 9 nM.
